# Test results reported in patent US20140044709A1, “TREATMENT OF HER2-POSITIVE CANCER WITH PACLITAXEL AND TRASTUZUMAB-MCC-DM1” (priority 2010, published 2014).
# Where two headings read alike, the source gives them in different places.
# Experiments:
# [1] = tested on: patients with HER2-positive MBC; details: for maximum tolerated dose (MTD): IV
# [2] = tested on: patients with HER2-positive MBC; details: 3.6 mg/kg every 3 weeks
# [3] = TDM4652g
# [4] = 2.9 mg/kg weekly, 3 patients treated
# [5] = 3.6 mg/kg every 3 weeks, 15 patients
substance,measurement,setting,value
T-DM1,patients unable to receive Day 8 dosing because of Grade 3 thrombocytopenia,[1]; [4],2 patients
same,patients with DLT (Grade 3-4 thrombocytopenia that prevented retreatment),[1]; [4],2 patients
same,DLTs,[1]; [5],no DLTs were observed
same,Grade 4 toxicity,[1]; [5],No Grade 4 toxicity
same,patients with DLT (Grade 3-4 thrombocytopenia that prevented retreatment),"[1]; 4.8 mg/kg every 3 weeks, 3 patients treated",2 patients
same,clinically significant bleeding events,[1]; both schedules,No clinically significant bleeding events
same,serious adverse events considered possibly related to study drug (pulmonary hypertension),[1]; both schedules,One
same,"toxicity, character",[1]; both schedules,"mild, reversible, and noncumulative"
same,Grade ≧2 adverse events at the MTD,[1]; either schedule,infrequent and manageable
same,"incidence of the most common Grade ≧2 adverse events (thrombocytopenia, nausea (weekly schedule), fatigue, headaches)",[1]; either schedule,> 25%
same,dose recommended for the Phase II study,[1]; every 3 weeks,3.6 mg/kg
same,maximum tolerated dose (MTD),[1]; every-3-week schedule,3.6 mg/kg
same,dose-limiting cardiotoxicity,[1]; preliminary safety data,No dose-limiting cardiotoxicity
same,tolerability of treatment,[1]; weekly and every-3-week schedules,well tolerated
same,maximum tolerated dose (MTD),[1]; weekly schedule,2.4 mg/kg
same,patients with Grade 3-4 adverse events,[2]; 112 patients enrolled,40 patients
same,patients requiring dose reduction,[2]; of 112 patients,3 patients
same,PK of T-DM1 in the presence of paclitaxel,[3],comparable with historical phase I data
